# AlphaSeq binding of Ab-14 light chain variants to a spike HR2 peptide

Values reported by Li et al. 2023, doi:10.1038/s41467-023-39022-2 (FLAb copy).

The target is the same throughout: PDVDLGDISGINAS, from the HR2 region of SARS-CoV-2 spike.

Parent: Ab-14, a human scFv built as VH, a 15-residue (Gly4Ser)3 linker, VL. Only the CDRs of the light chain vary.
VH: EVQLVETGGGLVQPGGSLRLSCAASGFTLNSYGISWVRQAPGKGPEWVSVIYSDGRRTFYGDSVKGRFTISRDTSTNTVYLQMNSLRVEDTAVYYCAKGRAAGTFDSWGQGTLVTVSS
VL: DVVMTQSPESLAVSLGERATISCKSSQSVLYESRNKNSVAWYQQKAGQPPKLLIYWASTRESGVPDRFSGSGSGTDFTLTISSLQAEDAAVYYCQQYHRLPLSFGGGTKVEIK

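Phage display of a naive human antibody library on the peptide gave the parent. The variants were designed computationally from a first round of random CDR variants and then made and measured. Several design methods are mixed in this list. The scFvs were displayed on barcoded MATa yeast, the peptide on MATalpha yeast. After mating in shaken culture at 30 °C for 16 h, diploids were selected and their barcode pairs sequenced. Read counts were normalised to the haploid input and turned into Kd by a linear fit to BCL2-family pairs of known affinity, for each replicate. Each pool was mated in six replicate cultures.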

The parent's light chain CDRs are KSSQSVLYESRNKNSVA, WASTRES, QQYHRLPLS; each variant's own CDRs replace them letter for letter. Affinities are written as log10 Kd with Kd in nM; a lower number is a better binder. Averages over replicates are reported, and they cover detected replicates only. "not detected" means that the variant was in the library but no mating with the target was seen in any replicate; the authors take this as a sign of poor binding, and no number exists. Nonspecific signal, from three strains lacking the peptide, appeared in 4% of pairings of all light chain designs, centred on 2.64 (5% of these signals below 1.59); values are not corrected for it. The control count says in how many pairings with the empty strains this scFv gave a signal. The range of this assay differs from that of the first round, and the authors advise against merging the two. The authors averaged sequences with at least three values out of six and counted those with two or fewer as poor binders. The parent sequence was in this pool as ten entries: three were never detected, three once, and four in most replicates, with averages from 0.34 to 2.37.

CDR-L1,CDR-L2,CDR-L3,mean log10 Kd (nM),replicates with signal,signal with controls
NIVGRVEDNQTENNAIA,DAHCRAG,QQYSRLPIS,2.01,5 of 6,0 of 18
KQSQSVKFESRNKNNVA,DASTRES,QQYHRLPLS,-0.23,6 of 6,0 of 18
TLYGLTNSMSKNKDSVA,EMTTREA,QQYDRLPLA,2.09,6 of 6,2 of 18
KLSQSQLYESRMKNSVA,NASTRLS,QQYHRLPLS,0.18,6 of 6,0 of 18
KVSQSGLYEDRNKNSVA,NASTRES,QQYHRLPLS,-0.23,6 of 6,3 of 18
KLAESVAMTSHHINSVA,QSTTREE,QQYNRLPLS,0.53,6 of 6,0 of 18
MVSQLMLWGHLAKNSIA,EAEHRIN,QQYDRLPLF,1.04,6 of 6,0 of 18
HQSESVLYESRNKNSVA,NGSTREV,QQYHRLPLS,0.01,6 of 6,1 of 18
KITSHIREGTADNNAMA,NADVSNE,QQYSRLPLF,0.66,6 of 6,1 of 18
KSSQSVWYESRNKNSVA,WASKRED,YQYHRLPLS,not detected,0 of 6,1 of 18
KQDGSVLYESRNKGSVA,GASTRES,QQYHGLPLS,0.47,6 of 6,0 of 18
KISQSVWMESRNVNNVA,NASTRED,QQYHRLELS,2.24,3 of 6,2 of 18
MINMEIGIEDRKWQAVA,SATVRAF,QQYGRLPFS,2.47,5 of 6,2 of 18
NLNTYYEGGFLNTDNIA,HGNMVEA,QQYYRLPLS,0.38,6 of 6,1 of 18
KSSQSVLQLSRNQNSVA,EASTREA,QQYHRLPLS,0.18,6 of 6,1 of 18
KSQQKVLYESMNKNSVA,EASTREA,QQYHRLSLS,not detected,0 of 6,0 of 18
TISTSANYESTKGNSVA,ELTTRGS,QQYERLPLS,1.09,6 of 6,1 of 18
MISQLMNMGTFAINSVA,QAEIRNN,QQYDRLPLA,1.94,2 of 6,0 of 18
TLGYQPTEMRDNKHAVA,DDEQRDR,QQYMRLPLS,0.24,6 of 6,1 of 18
KSSQSVLNESRNKNSVA,WASTRES,YSYHRLPLS,1.99,1 of 6,1 of 18
KFSQSVLYESRNKNSVA,NAVTRET,QQYHRLPLW,1.41,6 of 6,3 of 18
KSSQSVLYESANKNSVA,NASTRMS,QQYHRLPLS,0.33,6 of 6,0 of 18
KISQSVLEESRNKNSVA,WASTQES,QQYHRLPLS,1.43,6 of 6,0 of 18
KMQQSNLYESRNCNSVA,NASTRMW,QQYHRLPLS,1.47,6 of 6,0 of 18
KLSATYRYESQNKNSIA,EMSTREQ,QCYHRLPLS,0.68,6 of 6,2 of 18
KSSVSQLYTSRNKNSVA,WADTRES,QQDHRLPFS,2.14,4 of 6,0 of 18
MFSQLTYTGSRARNAVA,QASTREN,QQYHHLPLI,1.05,6 of 6,0 of 18
KFSGSVWYESRTKNSVA,NASTRES,QQYHRLPLS,0.06,6 of 6,0 of 18
KLSQSVLKESSNANSVA,KASTRER,QQYHRIPFS,1.64,6 of 6,3 of 18

Continued, with the values leading:

mean log10 Kd (nM),replicates with signal,signal with controls,CDR-L1,CDR-L2,CDR-L3
0.21,6 of 6,1 of 18,HVAGMMHQMGTQHQNIA,DMAIKCD,QQYQRLPLH
0.06,6 of 6,1 of 18,KLSQSVLMESRNKNSVA,EASTREE,QQYHRLPLS
0.42,6 of 6,1 of 18,KTSQSCLMESRNFNSVA,HASTRES,QQYSRLPLS
0.61,6 of 6,1 of 18,KLQQADLYESRNANSVA,QASTRSS,QCYHRLPLS
-0.23,6 of 6,2 of 18,KLSQSFLYESRNKNSVA,NASTRMS,QQYHRLPLS
0.01,6 of 6,1 of 18,KLSQSELYESRNKNSVA,NASMRES,QQYHRLPLS
-0.12,6 of 6,1 of 18,KLEFSVDYESRNKNAVA,EASTREK,QQYHRLPLS
1.62,6 of 6,0 of 18,ILSQMMLTAGNKHSSVA,QANNRND,QQYHRLPLS
0.07,6 of 6,0 of 18,KLSQSVLYEMRNKNSVA,NASTRES,QQYHRLPLS
1.39,6 of 6,1 of 18,KLYDDAASRVQDAENIA,EKTESLQ,QQYHRLPLS
not detected,0 of 6,0 of 18,KSSQSFLKESRNKNRVA,GASTRMS,QQCHRLTLS
2.21,2 of 6,0 of 18,KLSMWTYGPTEDKYNVA,NDEMRWQ,QQYDKLPLI
-0.22,6 of 6,3 of 18,KFSQSVLYESRFKNSVA,NAVTRET,QQYHRLPLS
2.34,1 of 6,0 of 18,KLAQSVLYESRNKNSVA,HASTRED,KQYHRLPLS
1.33,6 of 6,0 of 18,KSSQSGLMESRNANSVA,WASTRES,QQYHRLPLS
1.95,6 of 6,1 of 18,KLQGSHLYGSRNKNSVA,HASQRES,QCYHRLPLS
0.48,6 of 6,1 of 18,KLQMSHGYESRMKNSVA,HASQREE,QQYHRLPLS
0.51,6 of 6,0 of 18,TISQMTSMFSQNINNVA,EVSTREK,QQYDRLPLA
1.46,6 of 6,0 of 18,HIDSQEVGTIGAESNVA,ETNTLLY,QQYSHLPLS
1.63,6 of 6,1 of 18,MIGEMLMQGAYKRNSVA,QANIRAQ,QHYNRLPLE
not detected,0 of 6,0 of 18,KSFQIVLYESRLKNSVA,WASTRES,QQYHRLPLS
not detected,0 of 6,0 of 18,KLRMSTLYESRNKNSVA,RASTRES,QQYHRLPLS
-0.42,6 of 6,1 of 18,KLSQDVCYGDRNKNSVA,NASTREQ,QQYHRLPLS
-0.18,6 of 6,0 of 18,KLPQSALYESRNKNSVA,GASTRES,QQYHRLPLS
not detected,0 of 6,0 of 18,KSSQSVLYPSRNKNSVA,YAQTRES,QQYHRLPLS
2.08,4 of 6,0 of 18,HLGQEGYNQTYAMDAVA,DQNTALE,QHYSRLPLT
1.09,6 of 6,1 of 18,KVGQMTAIESRNLNSVA,QMDTRES,QQYDRLPLS
0.03,6 of 6,1 of 18,KISMLTLYESVNKNNVA,EMSTRPS,QSYHRLPLS
1.26,6 of 6,1 of 18,IITQVDAYLSRNTNSIA,DQSTRGS,QQYDRLPLS
-0.08,6 of 6,1 of 18,KLMGSVLYESRMKNAVA,GASQREK,QQYHRLPLS